Test results from patent US7468359B2, “Compositions comprising oxophosphonate-based metalloproteinase inhibitors” (Yissum Research Develpment Company of the Hebrew University …, priority 1999, dated 2008).

System: cancer cells
Assay: Matrigel chemoinvasion assay in Boyden chambers
Format: cell-based
Details: preliminary screening, invasion/chemotaxis chambers vs untreated preparations

O=C(SCC(Cl)(Cl)Cl)P(=O)([O-])O.[Na+]
Activity: ++ (active at 50-100 μM)
